Values of other authors in publication PMC3815326 (Microbial biotechnology, 2012).

Tested on: TodS
Conditions: agonist / antagonist classification, ref Busch et al., 2007, cited from earlier work

**Q.** Which “Effect on TodS” value does the source give for `Cc1ccccc1` [Toluene] here?
**A.** The value was “Agonist”.

**Q.** What about the “Effect on TodS” value (listed as toluene) of the same compound?
**A.** Its value is “Agonists”.

Read-outs that look alike come from different tables or passages of the source.
